Series [1] has as its system OCT4-del-79 (Homo sapiens). Put plainly: EMSA. For orientation: A gel shift assay detects complexes by their altered migration in electrophoresis.
Another series has as its system OCT4-WT (Homo sapiens). Put plainly: EMSA.

In turn, LIN28B-DNA displayed a Kd in series [1] of 2.34 nM. For the substance LIN28B-nucleosome, in the series on OCT4-WT (Homo sapiens), the Kd amounted to 2.34 nM.

One may read the Kd as the concentration at which binding is half-saturated.

Source of the values: PMC7611526.
